One may read the EC50 as the midpoint of the concentration-response curve.

Protein sequences, listed by entry. Tags and fused reporters are not part of them. Residues count along the entry.
UniProt Q9NZQ7, 19-290 limits assumed: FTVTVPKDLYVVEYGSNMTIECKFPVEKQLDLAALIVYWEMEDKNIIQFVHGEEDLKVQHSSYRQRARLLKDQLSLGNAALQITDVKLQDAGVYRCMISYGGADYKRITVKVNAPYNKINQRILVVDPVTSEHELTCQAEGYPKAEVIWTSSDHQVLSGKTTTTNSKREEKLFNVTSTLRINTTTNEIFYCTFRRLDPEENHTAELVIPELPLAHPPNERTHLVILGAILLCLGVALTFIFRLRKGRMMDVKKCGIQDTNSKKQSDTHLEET

The target of this assay is PD-1/PD-L1 (Homo sapiens, UniProt Q9NZQ7). In words: Detection of biological activity of PD-1/PD-L1 signaling inhibition at the cellular level (NFAT luciferase reporter, PD-1/NFAT-Reporter-Jurkat cells co-cultured with TCR activator/PD-L1-CHO cells). Conditions: read-out: EC50 NFAT Luciferase; PD-1/NFAT-Reporter-Jurkat + TCR activator/PD-L1-CHO co-culture, 6 hours; Atezolizumab as positive control. The source says:
Detection of Biological Activity of PD-1/PD-L1 Signaling Inhibition at the Cellular Level
This detection method is used for evaluating the biological activity of the compounds described in the present invention at the cellular level.
This detection method uses the luciferase reporter gene method to detect the biological activity of the compound on the inhibition of PD-1/PD-L1 signal at the cellular level. PD-1/NFAT—Reporter—Jurkat cells stably express human PD-1 and express the luciferase reporter gene regulated by NFAT elements; TCR activator/PD-L1-CHO cells stably express human PD-L1 and TCR activator elements. When the two cell lines were co-cultured, the binding of PD-1/PD-L1 inhibited the TCR signaling pathway, thereby inhibiting the expression of the downstream NFAT-controlled luciferase reporter gene. When PD-1/PD-L1 antibody or inhibitor is added, this inhibitory effect is reversed and luciferase is expressed, so that the effect of PD-1/PD-L1 inhibitor on luciferase activity can be detected.
PD-1/NFAT—Reporter—Jurkat cell (Cat: 60535) and TCR activator/PD-L1-CHO cell (Cat: 60536) were purchased from BPS Bioscience. Anti-human PD-L1 antibody (Atezolizumab, Cat: A2004) was purchased from Selleck; luciferase reporter gene expression detection kit (ONE-Glo™ Luciferase Assay System, Cat: E6120) was purchased from Promega; multifunction plate reader (SpectraMax i3x) was purchased from Molecular Devices.
The PD-1/NFAT—Reporter—Jurkat cells and TCR activator/PD-L1-CHO cells were cultured according to the routine cell culture protocol.
TCR activator/PD-L1-CHO cells were harvested and seeded into a 96-well culture plate at 35,000 cells/well in a medium volume of 100 μl and incubated overnight at 37° C. The next day, the medium was discarded, compound was added and incubated for 30 minutes, while a solvent control (dimethyl sulfoxide, DMSO, final concentration of 0.1%) and PD-L1 antibody (Atezolizumab, final concentration of about 10 nM) as positive controls were set. PD-1/NFAT-reporter-Jurkat cells were then added. After culturing for 6 hours, the luciferase activity was detected according to the instructions of the luciferase detection reagent.
Using PD-L1 antibody as a positive control, calculate the inhibition rate of PD-1/PD-L1 binding of the test compound (%)=(chemiluminescence value of compound treated wells/average value of chemiluminescence value of solvent control wells−1)/(average value of chemiluminescence value of PD-L1 antibody well/average value of chemiluminescence value of solvent control well−1)×100%.
According to the above detection method, the compounds of the present invention were evaluated for their biological activity at the cellular level, and the activity results are shown in the following table.
Turning to `COc1cc(Cn2ncc3c(-c4cccc(-c5ccc(CNC[C@@H]6CCC(=O)N6)cc5)c4Cl)cccc32)c(Cl)cc1CN1CC[C@H](C(=O)O)C1`, the concentration for a half-maximal effect (EC50) is 488 nM.
Then `COc1cc(-c2cccc(-c3cccc4c3cnn4Cc3cc(OC)c(CN(C)C45CCC(C(=O)O)(CC4)CC5)cc3Cl)c2C)ncc1CNC[C@@H]1CCC(=O)N1`, with 98 nM; and `COc1cc(-c2cccc(-c3cccc4c3cnn4Cc3cc(OC)c(CN(C4CC4)[C@H]4CC[C@@H](C(=O)O)CC4)cc3Cl)c2Cl)ccc1CNC[C@@H]1CCC(=O)N1`, with 520 nM.
Then `COc1cc(Cn2ncc3c(-c4cccc(-c5cc(F)c(CNC[C@@H]6CCC(=O)N6)c(OC)c5)c4Cl)cccc32)c(C#N)cc1CN(C)[C@H]1CC[C@H](C(=O)O)CC1`, with 15 nM; and `COc1cc(Cn2ncc3c(-c4cccc(-c5cnc(CNC[C@@H]6CCC(=O)N6)c(OC)c5)c4Cl)cccc32)c(Cl)cc1CN(C)C12CCC(C(=O)O)(CC1)CC2`, with 133 nM.

These data come from patent US12583839B2, “PD-L1 antagonist compound” (ADLAI NORTYE BIOPHARMA CO., LTD., priority 2019, dated 2026).
